Assays:
[1] = biological target: human Kv1.3 channel (Homo sapiens, UniProt P22001); assay type: cell-based
[2] = biological target: T1, human Kv1.1 (Homo sapiens, UniProt Q09470); assay type: cell-based
T1 construct: expressed in transfected cells; host or cells: HEK293

Amino acid sequences for entries named in this document (tags omitted).
UniProt P22001, whole entry: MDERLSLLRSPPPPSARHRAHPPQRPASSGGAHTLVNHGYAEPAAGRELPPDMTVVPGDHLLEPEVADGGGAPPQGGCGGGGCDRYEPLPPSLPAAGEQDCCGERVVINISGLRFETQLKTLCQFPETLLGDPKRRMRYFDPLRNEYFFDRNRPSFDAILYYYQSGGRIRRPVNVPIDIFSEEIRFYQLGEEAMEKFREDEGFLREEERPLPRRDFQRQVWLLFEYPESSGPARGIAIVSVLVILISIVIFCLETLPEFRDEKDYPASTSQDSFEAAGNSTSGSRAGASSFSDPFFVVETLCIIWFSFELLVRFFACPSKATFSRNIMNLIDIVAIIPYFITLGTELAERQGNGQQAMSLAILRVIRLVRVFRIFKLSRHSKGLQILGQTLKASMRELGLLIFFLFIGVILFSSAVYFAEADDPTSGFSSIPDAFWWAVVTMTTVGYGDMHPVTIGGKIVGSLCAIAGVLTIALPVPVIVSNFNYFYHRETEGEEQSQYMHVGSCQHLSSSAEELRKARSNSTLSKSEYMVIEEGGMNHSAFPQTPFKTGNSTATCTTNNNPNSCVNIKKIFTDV
UniProt Q09470, whole entry: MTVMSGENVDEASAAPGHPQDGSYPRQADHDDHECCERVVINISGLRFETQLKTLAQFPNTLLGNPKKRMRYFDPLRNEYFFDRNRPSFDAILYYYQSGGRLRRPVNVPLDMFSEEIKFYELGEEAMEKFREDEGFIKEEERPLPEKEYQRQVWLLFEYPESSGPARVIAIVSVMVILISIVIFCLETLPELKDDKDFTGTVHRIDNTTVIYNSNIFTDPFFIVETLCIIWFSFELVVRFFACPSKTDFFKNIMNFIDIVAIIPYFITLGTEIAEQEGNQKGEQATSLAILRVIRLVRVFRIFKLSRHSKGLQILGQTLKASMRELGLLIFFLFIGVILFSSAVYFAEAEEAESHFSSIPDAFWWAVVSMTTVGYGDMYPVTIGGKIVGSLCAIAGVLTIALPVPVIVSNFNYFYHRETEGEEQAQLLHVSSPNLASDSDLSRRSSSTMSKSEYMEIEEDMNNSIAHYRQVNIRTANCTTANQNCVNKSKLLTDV

SMILES: CC[C@H](C)[C@@H]1NC(=O)[C@H](CCCCN)NC(=O)[C@@H](NC(=O)[C@H](CCCCN)NC(=O)[C@@H](NC(=O)[C@H](CC(N)=O)NC(=O)[C@@H](NC(=O)[C@@H](NC(=O)[C@@H](NC(=O)CN)C(C)C)[C@@H](C)CC)[C@@H](C)CC)C(C)C)CSSC[C@@H]2NC(=O)[C@H](CCCCN)NC(=O)CNC(=O)[C@H](Cc3ccccc3)NC(=O)[C@H](CCCNC(=N)N)NC(=O)[C@H](CCSC)NC(=O)CNC(=O)[C@H](C)NC(=O)[C@H](CCCCN)NC(=O)[C@H](CCCCN)NC(=O)[C@@H]3CSSC[C@@H](C(=O)N[C@H](C(=O)N4CCC[C@H]4C(=O)N[C@@H](CCCCN)C(=O)O)[C@@H](C)O)NC(=O)[C@H](Cc4c[nH]cn4)NC(=O)[C@H](CSSC[C@H](NC(=O)[C@H](CCC(N)=O)NC(=O)[C@H](CCCNC(=N)N)NC(=O)[C@H](CO)NC1=O)C(=O)N[C@@H](CC(C)C)C(=O)N[C@@H](CCC(=O)O)C(=O)N1CCC[C@H]1C(=O)N3)NC(=O)[C@H](CCCCN)NC(=O)CNC(=O)[C@H](CC(N)=O)NC(=O)[C@H](CCSC)NC2=O [OSK1, reference compound]
- block of human Kv1.3 current (in words) [1]: more potent in inhibiting human Kv1.3 when compared to Kv1.1
- fold by which the Kv1.1 IC50 is higher than the Kv1.3 IC50 [2]: 5 fold
